# Laboratory results reported in PubChem BioAssay AID540275 (National Center for Advancing Translational Sciences (NCATS), 2011).
# Sequences of proteins named here, by UniProt entry; tags and fusion partners are left off.
# UniProt Q8NER1, whole entry, looked up: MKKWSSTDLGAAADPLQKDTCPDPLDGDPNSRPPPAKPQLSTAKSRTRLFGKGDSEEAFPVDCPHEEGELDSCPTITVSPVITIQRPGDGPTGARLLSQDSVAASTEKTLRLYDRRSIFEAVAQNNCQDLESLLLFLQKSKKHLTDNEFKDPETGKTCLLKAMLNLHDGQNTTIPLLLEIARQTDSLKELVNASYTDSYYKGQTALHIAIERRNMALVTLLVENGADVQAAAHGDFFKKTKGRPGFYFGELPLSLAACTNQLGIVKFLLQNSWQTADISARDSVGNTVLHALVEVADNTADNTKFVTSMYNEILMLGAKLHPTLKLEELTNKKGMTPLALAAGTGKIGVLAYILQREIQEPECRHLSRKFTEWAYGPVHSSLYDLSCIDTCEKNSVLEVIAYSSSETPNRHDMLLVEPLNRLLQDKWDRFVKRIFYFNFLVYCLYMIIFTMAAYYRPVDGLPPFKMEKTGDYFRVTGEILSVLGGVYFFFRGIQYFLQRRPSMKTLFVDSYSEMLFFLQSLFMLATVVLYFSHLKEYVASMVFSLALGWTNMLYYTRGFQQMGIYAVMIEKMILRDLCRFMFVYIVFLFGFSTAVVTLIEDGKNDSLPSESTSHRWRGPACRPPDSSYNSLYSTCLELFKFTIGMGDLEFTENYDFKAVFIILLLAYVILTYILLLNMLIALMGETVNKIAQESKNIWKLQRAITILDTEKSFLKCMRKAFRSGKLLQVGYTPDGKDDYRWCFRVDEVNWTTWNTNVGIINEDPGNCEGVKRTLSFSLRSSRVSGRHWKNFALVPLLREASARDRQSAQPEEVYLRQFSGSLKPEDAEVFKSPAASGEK
# This is a selection; strong and weak results do not stand in their true shares. Records with an inconclusive call do not appear. The source made the active and inactive calls. Cut-off read from the data, not from the text of the source: active = activation above about 80%; inconclusive = between about 30% and that limit; inactive = weaker than that.
# Molecular target: Transient receptor potential cation channel subfamily V member 1 (Homo sapiens) (UniProt Q8NER1)
# Test: HTS Assay for Compounds that Act as Agonists of the Vanilloid Receptor 1; note: 0% is about no effect
# Conditions: TRPV1-expressing cells, Fluo-8 calcium influx, agonist mode; at 8.33 µM; hits give high values
# Description: The transient receptor potential ion channel, family V, number 1, (TRPV1) is one of the most important molecular transducers of painful stimuli and a potential target for analgesic drug development. Although recent clinical trials with orthosteric antagonists have not produced a successful drug because of a hyperthermia side effect and their tendency to block thermal noxious pain, this ion channel is undeniably well placed in the pain pathway, and the idea of blocking pain signals before they enter the CNS is an excellent concept and of proven efficacy when TRPV1 agonists are used. We propose a new approach involving allosteric modulation to impose an activity-dependent constraint within the context of inflammation and tissue damage that would alter the responsiveness of the channel in a way that an orthosteric vanilloid antagonist cannot achieve. We believe that the allosteric modulator approach has not been explored for this target. The main goal of this proposal is to identify additional, new, potent allosteric modulators of TRPV1 that can be used to investigate TRPV1 function. Our recent report provides evidence of proof of concept, but the compounds are just at the edge of utility in terms of potency. […] The question of whether they can be used as analgesic agents is complex, but if suitable compounds are identified then testing for analgesic properties will be conducted. NIH Chemical Genomics Center [NCGC] NIH Molecular Libraries Probe Centers Network [MLPCN] MLPCN Grant: MH089480-1A1 Assay Submitter (PI): Michael Iadarola, National Institute of Dental and Cranofacial Research
# Upon TRPV1 activation in TRPV1 cells, the channel opens and extracellular cations flow through the channel into the cytosol. A calcium binding dye (Fluo-8) becomes fluorescent when bound to calcium. This dye is pre-loaded into cells and is used as a marker for calcium influx. The amount of accumulated calcium is precisely quantified using the FDSS kinetic reader and the calcium dye. For the HTS assay, freshly prepared cells are plated at a density of 2000/well in 3 ul medium in 1536-well plates and cultured overnight at 35.5C. Cells will be loaded with 1 ul of the homogeneous calcium dye (ABD Bioquest) at room temperature for 40 to 90 minutes. Plates will be loaded into the FDSS kinetic reader and a 1 sec / cycle for 10 second baseline signal will be measured. Compound library will then be added with a pintool at 23 nl and measured kinetically for 3 minutes. This portion of the read is considered the agonist portion of the screen. Following the 3 minutes of incubation, an on board pipettor will deliver 1 ul of capsaicin for a final concentration equal to the EC20. Signal will be measured kinetically for an additional 2 minutes. This portion of the read is considered the allosteric enhancer portion of the screen. The FDSS reader has a standard filter set capable of measuring calcium bound Fluo-8 (ex=480 and em=520 nm).
row,Compound,activation
1,Cc1cc(SC(NC(=O)c2ccccc2)C(Cl)(Cl)Cl)nc(C(C)C)n1 (stereo not given),inactive: 1.26%
2,CCCCOc1ccc(C(=O)NCC2(N3CCCCC3)CCCCC2)cc1OC,inactive: 7.26%
3,CCOC(=O)Nc1ccc([As](=O)(O)O)c(O)c1,inactive: -8.02%
4,O=P(Nc1ccccn1)(c1cccc2ccccc12)c1cccc2ccccc12,inactive: 10.5%
5,Cc1cc(SC(NC=O)C(Cl)(Cl)Cl)ncn1 (stereo not given),inactive: -3.18%
6,O=[N+]([O-])c1ccc(Nc2ccc(Oc3ccc([N+](=O)[O-])cc3[N+](=O)[O-])cc2)c([N+](=O)[O-])c1,inactive: 0.786%
7,CCOC(=O)Nc1cccc([As](=O)(O)O)c1,inactive: -4.04%
8,O=C(Nc1ccncc1[N+](=O)[O-])c1ccc([N+](=O)[O-])cc1[N+](=O)[O-],inactive: 0.485%
9,COP1(=S)c2c(C)nn(CCC#N)c2N=C(c2ccc(F)cc2)N1C (stereo not given),inactive: 12.6%
10,CCC(C)N(CC(C)C)C(=S)SC(NC(C)=O)C(Cl)(Cl)Cl (stereo not given),inactive: 2.24%
11,CCOP(=O)(Nc1cccc2cccnc12)OCC,inactive: 1.19%
12,O=C(OC1CN2CCC1CC2)c1cccc([N+](=O)[O-])c1 (stereo not given),inactive: 0.642%
13,CCOC(=O)c1ccc(NC(=O)C(C)(CCl)SC)cc1 (stereo not given),inactive: 3.43%
14,COc1cc(I)ccc1[As](=O)(O)O,inactive: -2.83%
15,COc1ccc2nc(NP(=O)(c3ccccc3)c3ccccc3)sc2c1,inactive: 23.2%
16,Cc1cc(=O)[nH]c(N[N+](=O)[O-])n1,inactive: -1.34%
17,COc1ccc(N/C(=N/P(=O)(N2CCOCC2)N2CCOCC2)N2CCOCC2)cc1,inactive: -1.69%
18,Cc1ccc(OP(=O)(Nc2ccc([N+](=O)[O-])cn2)Oc2ccc(C)cc2)cc1,inactive: 11.3%
19,Cc1ccc2nc3c(c(C)c2c1)CC(C(Cl)Cl)S3 (stereo not given),inactive: 8.36%
20,COc1cc(C(=O)NCC2(N3CCOCC3)CCCCC2)ccc1OCC(C)C,inactive: 11.6%
21,C[As](=O)(O)c1cccc(C(=O)O)c1,inactive: 0.719%
22,O=[As](O)(c1ccc(O)cc1)c1ccccc1O,inactive: -5.14%

row,Compound,activation
1,O=[N+]([O-])c1cc([N+](=O)[O-])c(-c2ccn[nH]2)s1,inactive: -0.337%
2,CC(C)NC(=O)NP(=O)(Oc1ccccc1)Oc1ccccc1,inactive: -1.67%
3,CCN(CC)C(=S)SC(NC=O)C(Cl)(Cl)Cl (stereo not given),inactive: 1.17%
4,ClCCSc1nnc(-c2cccnc2)o1,inactive: -0.692%
5,CC(C)c1ccc(OP(=O)(Nc2ccccn2)Oc2ccccc2F)cc1 (stereo not given),inactive: 19.8%
6,Nc1ccccc1[As](=O)(O)c1ccccc1,inactive: -1.74%
7,O=C(O)COc1ccc([As](=O)(O)O)cc1[N+](=O)[O-],inactive: 4.08%
8,O=P(Nc1nccs1)(Oc1ccccc1)Oc1ccccc1,inactive: -3.36%
9,O=P(Nc1nccs1)(c1ccccc1)c1nc2ccccc2s1 (stereo not given),inactive: 0.345%
10,CCOP1(=S)c2c(C)nn(CCC#N)c2N=C(c2ccccc2F)N1C (stereo not given),inactive: 6.99%
11,CCOP1(=S)c2c(C)nn(CCC#N)c2N=C(c2ccc(F)cc2)N1C (stereo not given),inactive: 12.3%
12,CN(C(=O)Cc1ccccc1)[C@@H]1CC[C@]2(CCCO2)C[C@H]1N1CCCC1,inactive: -1.64%
13,N#CCCN(C(=O)COC(=O)C(O)(c1ccccc1)c1ccccc1)c1ccc(F)cc1,inactive: -2.07%
14,O=[N+]([O-])c1ccc2c(c1)nnn2O,inactive: -0.85%
15,NC(=O)Nc1ccc([As](=O)(O)O)cc1,inactive: -0.116%
16,Cc1cccc(OCC(=O)OC2CN3CCC2CC3)c1 (stereo not given),inactive: -1.19%
17,O=C(OC1CN2CCC1CC2)c1ccc(Cl)cc1 (stereo not given),inactive: 3.12%
18,CS(=O)(=O)c1ccc(Cl)c(NC(=O)COC(=O)C(O)(c2ccccc2)c2ccccc2)c1,inactive: -3.53%
19,O=[As](O)(O)c1cccnc1,inactive: -2.69%
20,COc1cc(C(=O)NCC2(N3CCOCC3)CCCCC2)cc(Cl)c1OC(C)C,inactive: 25.4%
21,CCOP(=O)(Nc1cccc2ccccc12)OCC,inactive: -0.503%
22,COc1cc(C2NCCC3(OCCO3)C2(C)C)cc(OC)c1OC (stereo not given),inactive: 4.42%

row,Compound,activation
1,Cc1ccc(NCCc2c([N+](=O)[O-])cc([N+](=O)[O-])cc2[N+](=O)[O-])cc1,inactive: -1.99%
2,Nc1cccc2c([As](=O)(O)O)cccc12,inactive: 0.126%
3,CCCOP(=S)(Nc1nc(N)cc(=O)[nH]1)OCCC,inactive: 2.05%
4,CC(C)(C)C(=O)NC(Sc1ncccn1)C(Cl)(Cl)Cl (stereo not given),inactive: 0.728%
5,Clc1n[nH]nc1-c1nn[nH][15n]1,inactive: 0.538%
6,O=P1(Nc2ccccn2)COc2ccccc2OC1,inactive: -3.73%
7,CCC1=CC2Cc3nc4ccc(Cl)cc4c(N)c3C(C1)C2 (stereo not given),inactive: -1.88%
8,CCOP(=O)(Nc1ccc(C)cn1)OCC,inactive: -4.88%
9,CC(C)/C=N\N=C(\N)N[N+](=O)[O-],inactive: -0.875%
10,CN(C(=O)Cc1ccc(Cl)c(Cl)c1)[C@@H]1CCCC[C@H]1N1CCCC1,inactive: 4.55%
11,O=[As](O)(c1ccccc1Br)c1ccccc1Br,inactive: -1.8%
12,COc1ccccc1CNC(=O)COC(=O)C(O)(c1ccccc1)c1ccccc1,inactive: 5.19%
13,CN(C)C1(CNC(=O)c2ccc(S(C)(=O)=O)cc2)CCCCC1,inactive: 3.55%
14,O=C(/C=C/c1ccccc1)OC1CN2CCC1CC2 (stereo not given),inactive: 4.21%
15,Cc1ccc(C(=O)OC2CN3CCC2CC3)cc1 (stereo not given),inactive: -2.77%
16,Cc1nn(-c2ccccc2)c2c1P(=O)(N1CCOCC1)N(C)C(c1ccccc1)=N2 (stereo not given),inactive: 1.33%
17,Nc1cccc([As](=O)(O)c2ccccc2)c1,inactive: 0.596%
18,Cc1ccc(OCC(=O)OC2CN3CCC2CC3)cc1 (stereo not given),inactive: -0.178%
19,O=[As](O)(c1cccs1)c1cccs1,inactive: -3.22%
20,O=P1(Nc2ccc(Br)cn2)COc2ccccc2OC1,inactive: 5.6%
21,NS(=O)(=O)c1cccc(NC(=O)COC(=O)C(O)(c2ccccc2)c2ccccc2)c1,inactive: 4.6%
